From patent US6936585B2, “Corticotropin releasing factor 2 receptor agonists” (priority 2002, dated 2005)

Experiments:
CRF2R = molecular target: T1, CRF2R (Homo sapiens, UniProt Q13324); experiment: CRF2R agonist activation (EC50 / Emax), called comparative CRF binding; format: cell-based; conditions: for Emax: read-out: CRF2R Emax
T1 sequence (Q13324 1-411): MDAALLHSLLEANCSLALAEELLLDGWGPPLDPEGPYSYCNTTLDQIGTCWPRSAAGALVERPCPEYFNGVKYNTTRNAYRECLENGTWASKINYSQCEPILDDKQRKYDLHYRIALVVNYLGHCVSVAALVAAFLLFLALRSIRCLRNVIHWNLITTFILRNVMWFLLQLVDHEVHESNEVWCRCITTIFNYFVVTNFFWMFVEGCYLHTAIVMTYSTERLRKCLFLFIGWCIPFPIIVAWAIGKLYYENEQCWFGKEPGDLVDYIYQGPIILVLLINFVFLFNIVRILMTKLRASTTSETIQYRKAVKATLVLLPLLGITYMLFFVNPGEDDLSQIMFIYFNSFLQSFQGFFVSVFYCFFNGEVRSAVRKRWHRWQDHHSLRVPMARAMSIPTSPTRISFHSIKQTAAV
How it was run: (§1)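 Cells expressing human CRF1R or CRF2R are exposed to peptide or vehicle control, and receptor activation is read as cAMP induction, measured in cell lysates or via a CRE-linked reporter gene.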

CRF1R = molecular target: T2, CRF1R (Homo sapiens, UniProt P34998); experiment: CRF1R agonist activation (EC50 / Emax), called comparative CRF binding; format: cell-based; conditions: for pEC50: CRF1R EC50; for Emax: read-out: CRF1R Emax
T2 sequence (P34998 24-415): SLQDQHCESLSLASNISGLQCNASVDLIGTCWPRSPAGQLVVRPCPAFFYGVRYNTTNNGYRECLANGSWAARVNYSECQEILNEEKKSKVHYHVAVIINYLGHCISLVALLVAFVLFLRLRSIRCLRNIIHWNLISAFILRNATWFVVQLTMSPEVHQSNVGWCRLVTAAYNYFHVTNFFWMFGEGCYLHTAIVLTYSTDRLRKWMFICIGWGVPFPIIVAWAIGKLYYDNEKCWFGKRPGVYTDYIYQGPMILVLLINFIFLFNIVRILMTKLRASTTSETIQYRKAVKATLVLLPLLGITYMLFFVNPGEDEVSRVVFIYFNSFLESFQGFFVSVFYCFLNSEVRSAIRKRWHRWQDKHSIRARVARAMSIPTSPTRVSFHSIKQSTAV
How it was run: as §1

SMILES | pEC50 (CRF2R) | Emax (CRF2R) [%] | pEC50 (CRF1R) | Emax (CRF1R) [%]
CC[C@H](C)[C@H](NC(=O)[C@@H](NC(=O)[C@H](CC(=O)O)NC(=O)[C@H](CC(C)C)NC(=O)[C@H](CC(C)C)NC(=O)[C@H](CC(C)C)NC(=O)[C@H](CCCNC(=N)N)NC(=O)[C@H](CC(N)=O)NC(=O)[C@H](CC(N)=O)NC(=O)[C@H](C)NC(=O)[C@H](C)NC(=O)[C@H](CCC(N)=O)NC(=O)[C@H](CCC(N)=O)NC(=O)[C@H](CCCCN)NC(=O)[C@H](CCC(=O)O)NC(=O)[C@H](CCCCN)NC(=O)[C@H](CCC(=O)O)NC(=O)[C@H](CCC(N)=O)NC(=O)[C@H](CCCCN)NC(=O)[C@H](CCC(=O)O)NC(=O)[C@@H](NC(=O)[C@H](CCC(=O)O)NC(=O)[C@@H](NC(=O)[C@H](CCSC)NC(=O)[C@H](CCCCN)NC(=O)[C@H](CCCNC(=N)N)NC(=O)[C@H](CC(C)C)NC(=O)[C@H](CC(C)C)NC(=O)[C@H](Cc1ccc(O)cc1)NC(=O)CNC(=O)[C@@H]1CCCN1C(=O)[C@H](CC(C)C)NC(=O)[C@H](CC(=O)O)NC(=O)[C@@H](NC(=O)[C@H](CO)NC(=O)[C@@H](NC(=O)[C@@H]1CCCN1C(=O)[C@@H]1CCCN1C(=O)CNC(=O)[C@@H]1CCC(=O)N1)[C@@H](C)CC)[C@@H](C)CC)[C@@H](C)CC)[C@@H](C)CC)[C@@H](C)O)C(N)=O [compound 63] | 7.17 | 100 | 7.14 | 34
CC[C@H](C)[C@H](NC(=O)[C@@H](NC(=O)[C@H](C)NC(=O)[C@H](CC(C)C)NC(=O)[C@H](CC(C)C)NC(=O)[C@H](CC(C)C)NC(=O)[C@H](C)NC(=O)[C@H](CC(N)=O)NC(=O)[C@H](CC(N)=O)NC(=O)[C@H](C)NC(=O)[C@H](C)NC(=O)[C@H](CCC(N)=O)NC(=O)[C@H](CCC(N)=O)NC(=O)[C@H](CCCCN)NC(=O)[C@H](CCC(=O)O)NC(=O)[C@H](CCCCN)NC(=O)[C@H](CCC(=O)O)NC(=O)[C@H](CCC(N)=O)NC(=O)[C@H](CCCCN)NC(=O)[C@H](CCC(=O)O)NC(=O)[C@@H](NC(=O)[C@H](CCC(=O)O)NC(=O)[C@@H](NC(=O)[C@@H](NC(=O)[C@H](CCCCN)NC(=O)[C@H](CCCNC(=N)N)NC(=O)[C@H](CC(C)C)NC(=O)[C@H](CC(C)C)NC(=O)[C@H](CCC(N)=O)NC(=O)[C@H](Cc1ccccc1)NC(=O)[C@@H]1CCCN1C(=O)[C@H](CC(C)C)NC(=O)[C@H](CC(=O)O)NC(=O)[C@@H](NC(=O)[C@H](CO)NC(=O)[C@@H](NC(=O)[C@@H]1CCCN1C(=O)[C@@H]1CCCN1C(=O)CNC(=O)[C@@H]1CCC(=O)N1)[C@@H](C)CC)[C@@H](C)CC)[C@@H](C)CC)[C@@H](C)CC)[C@@H](C)CC)[C@@H](C)O)C(N)=O [compound 362] | 8.36 | 100 | 6.41 | 100
CC[C@H](C)[C@H](NC(=O)[C@@H](NC(=O)[C@H](CC(=O)O)NC(=O)[C@H](CC(C)C)NC(=O)[C@H](CC(C)C)NC(=O)[C@H](CC(C)C)NC(=O)[C@H](CCCNC(=N)N)NC(=O)[C@H](CC(N)=O)NC(=O)[C@H](CC(N)=O)NC(=O)[C@H](C)NC(=O)[C@H](C)NC(=O)[C@H](CCC(N)=O)NC(=O)[C@H](CCC(N)=O)NC(=O)[C@H](CCCCN)NC(=O)[C@H](CCC(=O)O)NC(=O)[C@H](CCCCN)NC(=O)[C@H](CCC(=O)O)NC(=O)[C@H](CCC(N)=O)NC(=O)[C@H](CCCCN)NC(=O)[C@H](CCC(=O)O)NC(=O)[C@@H](NC(=O)[C@H](CCC(=O)O)NC(=O)[C@@H](NC(=O)[C@H](CCSC)NC(=O)[C@H](CCCCN)NC(=O)[C@H](CCCNC(=N)N)NC(=O)[C@H](CC(C)C)NC(=O)[C@H](CC(C)C)NC(=O)[C@H](C)NC(=O)[C@H](CC(C)C)NC(=O)[C@@H]1CCCN1C(=O)[C@H](CC(C)C)NC(=O)[C@H](CC(=O)O)NC(=O)[C@@H](NC(=O)[C@H](CO)NC(=O)[C@@H](NC(=O)[C@@H]1CCCN1C(=O)[C@@H]1CCCN1C(=O)CNC(=O)[C@@H]1CCC(=O)N1)[C@@H](C)CC)[C@@H](C)CC)[C@@H](C)CC)[C@@H](C)CC)[C@@H](C)O)C(N)=O [compound 308] | – | 72.8 | – | 100

pEC50: −log10 of the molar value.
